Drawing on paper PMC6384991, “5-Arylideneimidazolones with Amine at Position 3 as Potential Antibiotic Adjuvants against Multidrug Resistant Bacteria” (Molecules, 2019), this text covers Papp for one molecule.

This series is described as follows: in vitro. As to conditions: PAMPA, pH 7.4.

For `CCn1cc(C(=O)O)c(=O)c2cc(F)c(N3CCNCC3)cc21` [Norfloxacin, norfloxacin], the apparent permeability coefficient (Papp) (as a rule, the rate of passage across a membrane or cell layer, normalised by area and donor concentration) at 5 h, 200 µM is 5.6 ± 1 nm/s.
